# Assay results as given in patent US9597402B2, “Sustained release small molecule drug formulation” (DURECT CORPORATION, priority 2005, dated 2017).
# Tests used:
# physchem = details: organic solvent or mixture
# Description: (§1) In one embodiment, a small molecule drug formulation includes a small molecule psychotherapeutic drug, such as a small molecule antipsychotic, dopamine receptor agonist, dopamine receptor antagonist, serotonin receptor agonist, serotonin receptor antagonist, and serotonin uptake inhibitor drug. […] R209130-base has the molecular formula C19H20FNO. R209130-mandelic acid salt (R209130) has the molecular formula C19H20FNO.C8H8O3. R209130-tartaric acid salt (R167154) has the molecular formula C19H20FNO.C4H6O6.
# LogP (C8OH/pH 7 buffer) = assay type: physicochemical; details: octanol/pH 7 buffer
# Description: as §1
compound,measurement,setting,value
"Cc1nc2n(c(=O)c1CCN1CCC(c3noc4cc(F)ccc34)CC1)CCCC2 [Risperidone base, Risperidone]",solubility,physchem,407 mg/mL
same,logP,LogP (C8OH/pH 7 buffer),3.04
